How the values were obtained:
Experiment in all cases: pull-down
His-tagged human NAP1 = target: T1, His-tagged human NAP1 (human, UniProt P55209 1-391)
T1 sequence (looked up): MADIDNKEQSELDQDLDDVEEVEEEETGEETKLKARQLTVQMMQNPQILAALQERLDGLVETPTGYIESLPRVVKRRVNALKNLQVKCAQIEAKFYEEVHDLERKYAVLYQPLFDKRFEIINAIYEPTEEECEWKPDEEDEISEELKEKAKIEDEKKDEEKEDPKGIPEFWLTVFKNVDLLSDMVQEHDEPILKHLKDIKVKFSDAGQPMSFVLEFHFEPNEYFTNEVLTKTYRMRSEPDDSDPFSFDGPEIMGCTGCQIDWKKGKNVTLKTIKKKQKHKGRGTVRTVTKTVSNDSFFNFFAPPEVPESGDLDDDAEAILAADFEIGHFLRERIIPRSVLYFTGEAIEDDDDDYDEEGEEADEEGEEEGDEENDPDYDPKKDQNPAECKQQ

His-tagged human TAF-1β = His-tagged human TAF-1β (human, UniProt Q01105-2)
His-tagged NAP1(1-312) = target: T2, His-tagged NAP1(1-312) (human, UniProt P55209 1-312)
T2 sequence (looked up): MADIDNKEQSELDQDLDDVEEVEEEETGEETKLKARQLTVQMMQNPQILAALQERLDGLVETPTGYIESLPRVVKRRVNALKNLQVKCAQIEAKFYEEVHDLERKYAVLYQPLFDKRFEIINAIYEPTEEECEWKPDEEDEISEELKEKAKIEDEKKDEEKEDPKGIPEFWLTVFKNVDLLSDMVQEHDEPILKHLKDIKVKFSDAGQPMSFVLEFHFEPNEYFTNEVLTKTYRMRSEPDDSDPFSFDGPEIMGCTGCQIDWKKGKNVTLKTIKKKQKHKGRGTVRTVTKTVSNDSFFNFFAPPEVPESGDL

Measured: binding result

B1: human linker histone H1.4 (natural protein)
chain: not shown
binds: all assays above
